A short description of one series: in vitro. Conditions: human, plasma.
As a reminder, the fraction unbound is free concentration divided by total concentration. Lower therefore signals little free substance. As for `COc1cc(O)c2c(c1)/C=C/C[C@H](O)[C@H](O)C(=O)/C=C\C[C@H](C)OC2=O`, the fraction unbound at 5 h was 0.0139.

`CC(=O)c1ccc2c(c1)N(CCN1CCC(NCc3ccc4c(n3)NC(=O)CO4)CC1)C(=O)CO2` showed a fraction unbound at 5 h of 0.119.

Turning to `CN1CCC[C@@H]1Cc1c[nH]c2ccc(Nc3ncccc3[N+](=O)[O-])cc12`, the fraction unbound at 5 h was 0.137.

The compound `O=C1COc2ccc(CNC3CCN(CCN4C(=O)COc5ccc(O)cc54)CC3)nc2N1` gave a fraction unbound at 5 h of 0.134.

Consider `CC(O)c1ccc2c(c1)N(CCN1CCC(NCc3ccc4c(n3)NC(=O)CO4)CC1)C(=O)CO2` (stereo unspecified), for which the fraction unbound at 5 h is 0.112.

Staying with this series, now noted: human, plasma, PPB.
In the case of `CCOC(=O)C1=C(C)NC2=C(C(=O)CC(C)(C)C2)C1c1ccc(-c2ccccc2)cc1` (stereo unspecified), the fraction unbound at 5 h was 0.0017.

`CN(C)CC/C=C1\c2ccccc2COc2ccccc21` [E-DOXEPIN]: the fraction unbound at 5 h is 0.212.

For the compound `CC(C)N(CCCNC(=O)OCc1ccccc1)C[C@H]1O[C@@H](n2cnc3c(N)ncnc32)[C@H](O)[C@@H]1O`, the fraction unbound at 5 h was 0.339.

In the case of `COc1cc2c(Nc3ccc(F)c(Cl)c3)c(C(N)=O)cnc2cc1OCCN(C)CCO`, the fraction unbound at 5 h is 0.329.

On to `COc1cc(C(C)C)c(Oc2cnc(N)nc2N)cc1I`, for which the fraction unbound at 5 h is 0.0467.

`O=C(NC1CC1)c1cn(-c2cccc(C#Cc3cccnc3)c2)c2ncccc2c1=O`: the fraction unbound at 5 h was 0.0167.

The compound `C[C@H](CO)Nc1nc(SCc2cccc(F)c2F)nc2[nH]c(=O)c(C#N)cc12` had a fraction unbound at 5 h of 0.0171.

In turn, `CC(=O)N(C)c1ccc(Nc2ncc3cc(-c4ccncc4)ccc3n2)cc1` gave a fraction unbound at 5 h of 0.0191.

`COc1ccc(Oc2cccc(CN3CCCC(n4cc(C)c(=O)[nH]c4=O)C3)c2)cc1` (stereo unspecified): the fraction unbound at 5 h was 0.0179.

`COc1ccc2nc(C)cc(OCC(=O)NCc3ccccc3)c2c1` showed a fraction unbound at 5 h of 0.0099.

`Cc1nc2ccc(NS(=O)(=O)c3ccc(C)c(C)c3)cc2s1`: the fraction unbound at 5 h turned out to be 0.001.

In turn, `O=[N+]([O-])c1c(Nc2ccc(-n3cncn3)cc2)ncnc1N1CCC(Sc2ccccn2)CC1` gave a fraction unbound at 5 h of 0.0017.

Turning to `CC(C)(C)OC(=O)N1CCC(OCc2nc(-c3ccncc3)no2)CC1`, the fraction unbound at 5 h was 0.0084.

In turn, `C[C@H](Cc1cccc(CC(=O)NC23CC4CC(CC(C4)C2)C3)c1)NC[C@H](O)c1ccc(O)c(CO)c1` showed a fraction unbound at 5 h of 0.101.

With `CN[C@@H](C)C(=O)N[C@H](C(=O)N[C@H]1CCCN(CCCc2ccccc2)C1)C1CCCCC1`, the fraction unbound at 5 h was 0.334.

For the compound `Cc1ccc2c(c1)c(-c1ccnc3cc(C(F)(F)F)ccc13)c(C)n2CC(=O)O`, the fraction unbound at 5 h is 0.0036.

Compound `NC(=O)c1cnc2[nH]c(-c3ccc(OCCN4CCCCC4)cc3)nc2c1NCCCNC(=O)C1CCC1` showed a fraction unbound at 5 h of 0.216.

For `O=C(CCCN1CCC(O)(c2ccc(Cl)cc2)CC1)c1ccc(F)cc1` [HALOPERIDOL], the fraction unbound at 5 h is 0.145.

For the compound `N#Cc1cnn2c(N)cc(-c3cccs3)nc12`, the fraction unbound at 5 h is 0.0488.

As for `COc1ccc(-c2cc3c(N[C@H]4CCCNC4)ncc(C(N)=O)c3s2)cc1`, the fraction unbound at 5 h was 0.0661.

On to `CCC#Cc1cncc(-c2ccc3c(c2)C2(N=C(C)C(N)=N2)[C@]2(CC[C@H](OC)CC2)C3)c1` (stereo partly specified), for which the fraction unbound at 5 h was 0.0383.

Compound `Cc1ccc(C(=O)N2CC3CNCC(C2)O3)cc1NC(=O)CC12CC3CC(CC(C3)C1)C2` had a fraction unbound at 5 h of 0.28.

`N#Cc1cc(S(=O)(=O)Nc2ncns2)ccc1Oc1cc(Cl)c(F)cc1-c1ccnnc1` gave a fraction unbound at 5 h of 0.0041.

Consider `CN(C(=O)Cc1ccc(S(C)(=O)=O)cc1)C1CCN(Cc2ccc(C(F)(F)F)cc2)CC1`, for which the fraction unbound at 5 h was 0.19.

Take `CS(=O)(=O)c1ccccc1C(=O)NC[C@@H](O)CN1CCC(Oc2ccc(Cl)c(Cl)c2)CC1`: the fraction unbound at 5 h is 0.0872.

For `CCCCc1nc2c(N)nc3ccccc3c2n1Cc1ccccc1`, the fraction unbound at 5 h was 0.0171.

As for `O=C(NC[C@@H](O)CN1CCC(Oc2ccc(Cl)c(Cl)c2)CC1)c1c[nH]c2ccccc12`, the fraction unbound at 5 h was 0.0191.

On to `CC(C)C[C@H](CO)Nc1nc(SCc2ccccc2)nc2nc(N)sc12`, for which the fraction unbound at 5 h is 0.0044.

The compound `CC(=O)Nc1ccc2c(c1)c(-c1cc(NC3CC3)n3ncc(C#N)c3n1)cn2C` had a fraction unbound at 5 h of 0.0136.

Compound `CN[C@@H](C)C(=O)N[C@H](C(=O)N[C@H]1CCCN(CCc2cccc(F)c2)C1)C1CCCCC1` showed a fraction unbound at 5 h of 0.28.

`COc1cccc2c(O)nc(-c3ccc(C(F)(F)F)cc3)nc12` showed a fraction unbound at 5 h of 0.0544.

`O=C(Nc1cccc(CCO)c1)c1cc2cc(Cl)ccc2[nH]1` showed a fraction unbound at 5 h of 0.0074.

The compound `Cc1cn([C@H]2CCCN(Cc3ccc(C(=O)O)c(Oc4cccc(F)c4)c3)C2)c(=O)[nH]c1=O` showed a fraction unbound at 5 h of 0.0818.

`O=c1[nH]c2cc(C(F)(F)F)ccc2n1-c1cc(C(F)(F)F)ccc1O` showed a fraction unbound at 5 h of 0.0013.

In turn, `Cc1cn([C@H]2CCCN(S(=O)(=O)c3ccc(O)c(Oc4cccc(C(F)(F)F)c4)c3)C2)c(=O)[nH]c1=O` gave an unbound share (fraction unbound) at 5 h of 0.0139.

As for `Cc1ccc2c(c1)c(-c1ccnc3c(Cl)cccc13)c(C)n2CC(=O)O`, the fraction unbound at 5 h is 0.0056.

As to `O=C(Nc1ccc(Cl)c(C(=O)Nc2cccnc2)c1)c1cccc(Cl)c1`, the fraction unbound at 5 h was 0.0171.

Regarding `Cc1c(CC(=O)O)c2cc(F)ccc2n1S(=O)(=O)c1ccc(S(C)(=O)=O)cc1`, the fraction unbound at 5 h is 0.0768.

In the case of `Cn1cc(-c2ccncc2)c(-c2ccc(OCc3ccc4ccccc4n3)cc2)n1` [MARDEPODECT], the fraction unbound at 5 h is 0.0012.

`CCC(C)(C)C[C@H](c1ccc(C(=O)O)c(Oc2cccc(Cl)c2)c1)N1CCC[C@H](n2cc(C)c(=O)[nH]c2=O)C1` gave a fraction unbound at 5 h of 0.0163.

As for `N#Cc1ccc2ccc(=O)n(CCN3CC[C@@H](NCc4cc5c(cn4)OCCO5)[C@@H](O)C3)c2c1`, the fraction unbound at 5 h was 0.208.

In turn, `CC(C)(C)NS(=O)(=O)c1cncc(-c2ccc3nc(NC(=O)NCC(=O)N4CCOCC4)nn3c2)c1` had a fraction unbound at 5 h of 0.46.

`C[C@H]1CN=C(N)c2sccc2O1` gave a fraction unbound at 5 h of 0.489.

`O=C(NCC12CC3CC(CC(C3)C1)C2)c1cc(-n2ncc(=O)[nH]c2=O)ccc1Cl` showed a fraction unbound at 5 h of 0.0187.

With `Nc1scc2c(C(=O)NC3CC3)nn(-c3ccc(F)cc3)c(=O)c12`, the unbound share (fraction unbound) at 5 h is 0.069.

As for `C1Cc2[nH]nc(-c3nnn[nH]3)c2C1`, the fraction unbound at 5 h is 0.101.

The compound `CC(=O)c1ncccc1NC(=O)[C@H]1CC[C@H](N2C(=O)[C@@H]3[C@@H]4CC[C@@H](C4)[C@@H]3C2=O)CC1` showed a fraction unbound at 5 h of 0.013.

`CCN(C(=O)NCc1ccc(S(C)(=O)=O)cc1)C1CCN(CCC(c2ccccc2)c2ccccc2)CC1` showed a fraction unbound at 5 h of 0.329.

Compound `COc1cc(Nc2nc3c(c(COC4CCCC4)n2)COCC3)ccc1-n1cnc(C)c1` showed a fraction unbound at 5 h of 0.0099.

Regarding `O=C(Nc1ccc(Cl)c(Cl)c1)Nc1ccccc1C(=O)O`, the fraction unbound at 5 h is 0.523.

`Nc1cc(C(=O)Nc2cccc(-c3nnn[nH]3)c2)cc(C(F)(F)F)c1` gave a fraction unbound at 5 h of 0.0219.

`Cn1c(C#N)ccc1-c1ccc2c(c1)C(C)(C)OC(=S)N2` [TANAPROGET] showed a fraction unbound at 5 h of 0.0179.

In the case of `CCC(CC)NC(=O)c1cnn(-c2ccccc2)c1NS(=O)(=O)c1ccc(C)cc1`, the fraction unbound at 5 h was 0.0139.

Compound `CC(C)(N)C(=O)N[C@H](COCc1ccc(F)cc1F)C(=O)N1CCC2=NN(CC(F)(F)F)C(=O)[C@]2(Cc2ccccn2)C1` had a fraction unbound at 5 h of 0.253.

As for `CCC(CC)[C@@H](CO)NS(=O)(=O)c1ccc(Cl)s1` [GSI-136], the fraction unbound at 5 h was 0.0784.

For `CNC(=O)c1ccc(C)c(-n2c(C)cc(OCc3ccc(F)cc3F)c(Br)c2=O)c1` [PH-797804], the fraction unbound at 5 h was 0.0647.

For the compound `O=C(CC1CCN(Cc2ccn(-c3ccc(C(F)(F)F)cc3)c2)CC1)NC(c1ccc(F)cc1)c1cccnc1` (stereo unspecified), the fraction unbound at 5 h is 0.0313.

`Nc1ncnc2c1ncn2[C@@H]1O[C@H](CSCCCNC(=O)Nc2ccccc2)[C@@H](O)[C@H]1O` had a fraction unbound at 5 h of 0.186.

In turn, `CCS(=O)(=O)c1ccc(-c2cc(Cl)ccc2OCC(=O)O)c(C)c1` had a fraction unbound at 5 h of 0.0029.

`O=C(NC[C@@H](O)CN1CCC(Oc2ccc(Cl)c(Cl)c2)CC1)c1n[nH]c(=O)c2ccccc12` showed a fraction unbound at 5 h of 0.035.

Compound `Nc1nc(Nc2cccc(Br)c2)c2[nH]cnc2n1` gave a fraction unbound at 5 h of 0.355.

Compound `O=C(c1ccc(-c2ccc(Cl)cc2)o1)N(Cc1ccccn1)c1ccc(N2CCNCC2)cc1` gave a fraction unbound at 5 h of 0.0268.

Compound `NC(=O)c1cnc(N[C@H]2CCCNC2)c2cc(-c3ccc(F)c(Cl)c3)sc12` gave a fraction unbound at 5 h of 0.0039.

In turn, `Cc1cc2cc(C)c3nnc(SCC(=O)N4CCN(C(=O)c5ccco5)CC4)n3c2cc1C` gave a fraction unbound at 5 h of 0.0209.

Turning to `COc1cc(OC)c(S(=O)(=O)NCc2ccccc2N2CCCCC2)cc1NC(=O)CCC(=O)O`, the fraction unbound at 5 h was 0.304.

`O=C(CN1CCCCCC1)N1c2ccccc2Sc2ccccc21` had a fraction unbound at 5 h of 0.0293.

In turn, `C[C@H]1O[C@@H](n2cnc3c(N)nc(OC(C4CC4)C(F)(F)F)nc32)[C@H](O)[C@@H]1O` (stereo partly specified) gave a fraction unbound at 5 h of 0.349.

Compound `COc1cc2nc(-c3ccc(N4CCN(C)CC4)cc3)nc(NCCN3CCOCC3)c2cc1OC` gave a fraction unbound at 5 h of 0.448.

Regarding `COc1cccc(Nc2nc(NCC3CCCO3)c3ccccc3n2)c1` (stereo unspecified), the fraction unbound at 5 h was 0.0119.

`CC(C)(Oc1ccc(C(=O)c2ccc(Cl)cc2)cc1)C(=O)O` [FENOFIBRIC ACID] gave a fraction unbound at 5 h of 0.0119.

As for `CC(C)Cn1cnc2c(N)nc3ccccc3c21` [IMIQUIMOD], the fraction unbound at 5 h is 0.148.

Consider `COc1cc(O)c(S(=O)(=O)N2c3ccccc3CCC2C)cc1NC(=O)CCC(=O)O` (stereo unspecified), for which the fraction unbound at 5 h was 0.0437.

`Cc1c(OC2CCN(CC3CCN([C@@](C)(Cc4ccc(F)cc4)C(=O)O)CC3)CC2)ccc(Cl)c1Cl`: the fraction unbound at 5 h is 0.0321.

`CN1CCC(CNc2ccc3ncc(-c4cccc(OC(F)(F)F)c4)n3n2)CC1` [SGI-1776] gave a fraction unbound at 5 h of 0.0391.

Turning to `O=C(Nc1cccc(Cl)c1)Nc1nnc(-c2ccncc2)s1`, the fraction unbound at 5 h was 0.002.

Consider `Cc1ccc(C(NC(=O)c2ccccc2O)C(=O)Nc2c(C)cccc2C)s1` (stereo unspecified), for which the fraction unbound at 5 h is 0.0043.
